Values quoted from earlier work as cited in patent US10851223B2, “Use of a cyclodextrin polycondensate or a composition comprising such a polycondensate, as a capturing agent” (BIOSTART, priority 2016, dated 2020).

Conditions: octanol/water

NC(=O)N1c2ccccc2C=Cc2ccccc21 [Carbamazepine, reference compound]
Log Kow: 2.45
